The values below come from patent US12139488B2, “Pyrido[3,2-d]pyrimidine compounds uses thereof for treating a proliferative disease” (Universite de Montreal, priority 2021, dated 2024).

As a reminder, the IC50 is the concentration needed to halve the response being measured.

For one test, the system named is pERK in HCT-116 cells (KRAS G13D). In words: Phospho-ERK inhibition (AlphaLISA SureFire Ultra p-ERK 1/2), HCT116. The settings on record: lowest % inhibition value of the IC50 curve, HCT116. In short, it runs like this:
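p-ERK1/2 (Thr202/Tyr204) in lysates measured by AlphaLISA after 1 h compound exposure of overnight-plated cells (RPMI-1640, 5% FBS, 0.5% DMSO, ten concentrations, usually from 10 μM). Background from a trametinib control subtracted, inhibition normalised to vehicle, and IC50 fitted with a variable-slope four-parameter model.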
As for `Cc1ccc(S(=O)(=O)Nc2ccc(F)c(Nc3ncnc4ccc(-n5cnc6ccccc65)nc34)c2F)c(Cl)c1`, the “HCT116 pERK Ymin %” value is listed as −2.0%.

Still in this test, the particulars now being: read-out: HCT116 pERK IC50; HCT116 cells; class symbol.
For the compound `CC(C)(C)CCN1CCC(S(=O)(=O)c2cn(-c3ccc4ncnc(Nc5c(F)ccc(NS(=O)(=O)c6cccc(Cl)c6Cl)c5F)c4n3)c3ccccc23)CC1`, the IC50 is less than 0.5 µM.
On to `O=S(=O)(Nc1ccc(F)c(Nc2ncnc3ccc(-n4cnc(C(F)(F)F)c4)nc23)c1F)c1cccc(Cl)c1Cl`, for which the IC50 fell in the range of 0.5 to 1 µM.
On the same count and under the same terms, the same measure for `Nc1cccc2c1ncn2-c1ccc2ncnc(Nc3c(F)ccc(NS(=O)(=O)c4ccccc4C(F)(F)F)c3F)c2n1`: less than 0.5 µM; for `O=S(=O)(Nc1ccc(F)c(Nc2ncnc3ccc(-n4ccnn4)nc23)c1F)c1cccc(Cl)c1Cl`: less than 0.5 µM.
With `CN(CCc1ccccn1)S(=O)(=O)c1cn(-c2ccc3ncnc(Nc4c(F)ccc(NS(=O)(=O)c5cccc(Cl)c5Cl)c4F)c3n2)c2ccccc12`, the IC50 is less than 0.5 µM.
As for `Cc1c(F)cccc1S(=O)(=O)Nc1ccc(F)c(Nc2ncnc3ccc(-n4cc(S(=O)(=O)N5CCC(CO)CC5)c5ccccc54)nc23)c1F`, the IC50 is less than 0.5 µM.
In the case of `CC(C)(C)CN1CCC(S(=O)(=O)c2cn(-c3ccc4ncnc(Nc5c(F)ccc(NS(=O)(=O)c6cccc(Cl)c6Cl)c5F)c4n3)c3ccccc23)CC1`, the IC50 is 1 to 10 µM.
On to `Cc1c(F)cccc1S(=O)(=O)Nc1ccc(F)c(Nc2ncnc3ccc(-n4cc(C(=O)N5CCC(C)(O)CC5)c5ccccc54)nc23)c1F`, for which the IC50 was less than 0.5 µM.
The same measure, in the same setting: as for `COc1ccc(S(=O)(=O)Nc2ccc(F)c(Nc3ncnc4ccc(-n5nnc6ccccc65)nc34)c2F)c(C)c1F`, the figure is 0.5 to 1 µM; as for `COc1ccc(S(=O)(=O)Nc2ccc(F)c(Nc3ncnc4ccc(-n5nc(C(=O)N(C)CCc6ccccn6)c6ccccc65)nc34)c2F)c(C)c1F`, less than 0.5 µM.
`Cc1c(F)cccc1S(=O)(=O)Nc1ccc(F)c(Nc2ncnc3ccc(-n4nc(C(=O)NCC(C)(C)O)c5ccccc54)nc23)c1F`: the IC50 is 0.5 to 1 µM.
The same measure, in the same setting: as for `Cc1c(F)cccc1S(=O)(=O)Nc1ccc(F)c(Nc2ncnc3ccc(-n4cnc(CCO)c4)nc23)c1F`, the figure is 1 to 10 µM; as for `Cc1c(F)cccc1S(=O)(=O)Nc1ccc(F)c(Nc2ncnc3ccc(-n4nc(C(=O)N(C)Cc5ncccn5)c5ccccc54)nc23)c1F`, less than 0.5 µM.
Same read-out and setting: as for `CN(Cc1ccncc1)C(=O)c1nn(-c2ccc3ncnc(Nc4c(F)ccc(NS(=O)(=O)c5cccc(Cl)c5Cl)c4F)c3n2)c2ccccc12`, the figure is less than 0.5 µM; as for `CN(CC(F)F)S(=O)(=O)c1cn(-c2ccc3ncnc(Nc4c(F)ccc(NS(=O)(=O)c5cccc(Cl)c5Cl)c4F)c3n2)c2ccccc12`, less than 0.5 µM.
Same read-out and setting: as for `O=S(=O)(Cc1ccc(F)cc1)c1cn(-c2ccc3ncnc(Nc4c(F)ccc(NS(=O)(=O)c5cccc(Cl)c5Cl)c4F)c3n2)c2ccccc12`, the figure is 0.5 to 1 µM; as for `CCN(CC)CCN(C)S(=O)(=O)c1cn(-c2ccc3ncnc(Nc4c(F)ccc(NS(=O)(=O)c5cccc(Cl)c5Cl)c4F)c3n2)c2ccccc12`, less than 0.5 µM.
Consider `NS(=O)(=O)c1cn(-c2ccc3ncnc(Nc4c(F)ccc(NS(=O)(=O)c5cccc(Cl)c5Cl)c4F)c3n2)c2ccccc12`, for which the IC50 lay in the range of 0.5 to 1 µM.
Same read-out and setting: as for `Cc1c(F)cccc1S(=O)(=O)Nc1ccc(F)c(Nc2ncnc3ccc(-n4cc(S(=O)(=O)N5CCN(C)CC5)c5ccccc54)nc23)c1F`, the figure is less than 0.5 µM; as for `COC[C@H]1CCCN1S(=O)(=O)c1cn(-c2ccc3ncnc(Nc4c(F)ccc(NS(=O)(=O)c5cccc(Cl)c5Cl)c4F)c3n2)c2ccccc12`, less than 0.5 µM; as for `O=S(=O)(Nc1ccc(F)c(Nc2ncnc3ccc(-n4cnc5c(Cl)nccc54)nc23)c1F)c1cccc(Cl)c1Cl`, less than 0.5 µM.
For `CN(c1cccnc1)S(=O)(=O)c1cn(-c2ccc3ncnc(Nc4c(F)ccc(NS(=O)(=O)c5cccc(Cl)c5Cl)c4F)c3n2)c2ccccc12`, the concentration for half-maximal inhibition (IC50) is less than 0.5 µM.
The same measure, in the same setting: the same measure for `Cc1c(F)cccc1S(=O)(=O)Nc1ccc(F)c(Nc2ncnc3ccc(-n4nnc5ccccc54)nc23)c1F`: less than 0.5 µM; for `O=S(=O)(Nc1ccc(F)c(Nc2ncnc3ccc(-n4cc(C(F)(F)F)nn4)nc23)c1F)c1cccc(Cl)c1Cl`: 1 to 10 µM.

The test is the same for the next values; noted with them: read-out: HCT116 pERK IC50 in μM; HCT116 cells, 1 h treatment.
As to `Cc1ccc(S(=O)(=O)Nc2ccc(F)c(Nc3ncnc4ccc(-n5cnc6ccccc65)nc34)c2F)c(Cl)c1`, the IC50 was 1 to 10 µM.
